The entries are a selection whose mix differs from that of the whole data set. Active and inactive are the calls of the source. Rule as the data show it: active = activation above about 40%; inactive = the rest.
Biological target: Atrial natriuretic peptide receptor 1 (Homo sapiens) (UniProt P16066)
Assay: GC-A stimulated cGMP production enhancers – HEK293 GC-A cells, cGMP TR-FRET, EC30 ANP, primary screen (AID 1671463)
Settings: at 10 µM, hits give high values, 0% at EC30 ANP, 100% saturating ANP

By UniProt entry, the sequences of proteins in these tests, tags left out. Where a name states a change or a piece, a line headed by the entry shows the natural chain unless it says otherwise.
UniProt P16066: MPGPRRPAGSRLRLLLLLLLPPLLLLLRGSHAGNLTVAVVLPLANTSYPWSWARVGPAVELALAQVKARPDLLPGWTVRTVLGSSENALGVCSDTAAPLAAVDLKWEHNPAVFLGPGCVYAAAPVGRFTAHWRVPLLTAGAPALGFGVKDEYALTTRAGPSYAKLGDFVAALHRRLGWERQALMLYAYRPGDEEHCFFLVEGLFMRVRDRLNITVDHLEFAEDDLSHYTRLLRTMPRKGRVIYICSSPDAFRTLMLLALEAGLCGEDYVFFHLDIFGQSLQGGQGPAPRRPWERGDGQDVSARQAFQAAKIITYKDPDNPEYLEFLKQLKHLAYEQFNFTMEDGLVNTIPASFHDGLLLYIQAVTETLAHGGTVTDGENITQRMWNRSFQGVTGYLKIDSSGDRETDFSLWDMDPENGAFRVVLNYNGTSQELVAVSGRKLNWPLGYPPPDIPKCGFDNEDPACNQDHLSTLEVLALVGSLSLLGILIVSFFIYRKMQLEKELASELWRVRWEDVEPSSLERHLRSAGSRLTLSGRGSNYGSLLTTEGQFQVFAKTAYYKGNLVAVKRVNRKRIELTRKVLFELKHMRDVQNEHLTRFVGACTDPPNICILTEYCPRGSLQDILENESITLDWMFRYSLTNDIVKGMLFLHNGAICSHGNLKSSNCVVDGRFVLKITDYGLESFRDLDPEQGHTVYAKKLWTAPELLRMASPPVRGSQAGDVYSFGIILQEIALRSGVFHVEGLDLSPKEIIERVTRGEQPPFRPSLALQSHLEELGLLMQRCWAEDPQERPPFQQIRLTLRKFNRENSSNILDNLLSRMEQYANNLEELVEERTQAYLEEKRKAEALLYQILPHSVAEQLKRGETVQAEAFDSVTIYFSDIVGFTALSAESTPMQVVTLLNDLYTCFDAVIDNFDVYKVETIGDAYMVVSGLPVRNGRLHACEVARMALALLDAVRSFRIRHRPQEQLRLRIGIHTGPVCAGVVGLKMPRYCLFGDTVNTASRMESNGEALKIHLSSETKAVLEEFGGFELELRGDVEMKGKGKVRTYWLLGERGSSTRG

Row | Structure (SMILES) | activation
1 | Clc1ccc(Cl)c(NC2=NCC(CBr)S2)c1 (configuration not stated) | inactive: 9.57%
2 | CN1CCCC(OC(=O)C(c2ccccc2)c2ccccc2)C1 (configuration not stated) | inactive: -5.42%
3 | COc1ccccc1OP(=O)(Nc1ccc(C)cn1)Oc1ccccc1OC | inactive: -5.56%
4 | Cc1ccc(OP(=O)(Nc2nccs2)Oc2ccc(C)cc2)cc1 | inactive: 1.04%
5 | CN(C(=O)Cc1ccc(Cl)c(Cl)c1)[C@H]1CCCC[C@H]1N1CCCC1 | inactive: -8.85%
6 | Cc1ccc(N/C(=N/P(=O)(N2CCOCC2)N2CCOCC2)N2CCOCC2)cc1 | inactive: -3.17%
7 | NC(=O)c1cc([N+](=O)[O-])cc([N+](=O)[O-])c1N | inactive: 1.65%
8 | Oc1ccccc1CNc1ccccn1 | inactive: 0.36%
9 | O=C(NC(Sc1ccncn1)C(Cl)(Cl)Cl)c1ccccc1 (configuration not stated) | inactive: 2.61%
10 | CC(C)CC(=O)NC(Sc1ccc(Cl)cc1)C(Cl)(Cl)Cl (configuration not stated) | inactive: -1.79%
11 | Nc1cc(N)c2nonc2c1[N+](=O)[O-] | inactive: -2.37%
12 | CCn1c(=O)n(C2CCN(CC3CCCCCCC3)C[C@H]2CO)c2ccccc21 (some centres not stated) | inactive: 0.17%
13 | CCOP(=O)(Nc1ccccc1)OCC | inactive: 0.28%
14 | Cc1cc(SC(NC(=O)c2ccc(F)cc2)C(Cl)(Cl)Cl)ncn1 (configuration not stated) | inactive: 1.3%
15 | CN(C(=O)Cc1ccc(Cl)c(Cl)c1)[C@H]1CCCC[C@@H]1N1CCCC1 | inactive: -5.75%
16 | Cc1ccc(NP(=O)(Oc2ccccc2F)Oc2ccccc2F)nc1 | inactive: -2.11%
17 | CN(C)P(=O)(N(C)C)n1c(Nc2ccccc2)nnc1-c1ccccc1 | inactive: -6.19%
18 | O=P(Nc1nc2ccc(Cl)cc2s1)(c1ccccc1)c1ccccc1 | inactive: -0.9%
19 | O=C(O)c1ccccc1[As](=O)(O)O | inactive: 3.59%
20 | CC(=O)Nc1ccc([As](=O)(O)O)cc1 | inactive: 6.19%
21 | CCCC1OP(N)(=O)OCC1CC (configuration not stated) | inactive: 2.63%
22 | Nc1cccc2ccc([As](=O)(O)O)cc12 | inactive: 3.73%
23 | CN(C(=O)Cc1ccccc1)C1CC[C@@]2(CCCO2)C[C@@H]1N1CCCC1 (some centres not stated) | inactive: -2.21%
24 | CCN(N=Nc1nonc1N)c1nonc1N | inactive: 0.28%
25 | O=C(Nc1cc([As](=O)(O)O)ccc1O)c1ccccc1 | inactive: 2.03%
26 | O=P1(N(CCCl)CCCl)OCCCS1 (configuration not stated) | inactive: -1.55%

Row | Structure (SMILES) | activation
27 | O=C(O)CNc1ccc([As](=O)(O)O)cc1 | inactive: 4.28%
28 | O=[N+]([O-])c1cccc(NC2=NCC(CBr)S2)c1 (configuration not stated) | inactive: 1.67%
29 | COC(=O)C1(C)COP(=O)(Nc2ccccc2)OC1 (configuration not stated) | inactive: 2.72%
30 | O=[N+]([O-])c1ncn(CCn2ncnc2[N+](=O)[O-])n1 | inactive: -0.15%
31 | CC(C)(C)C(=O)NC(Sc1ccncn1)C(Cl)(Cl)Cl (configuration not stated) | inactive: 1.52%
32 | Cc1ccc(NP(=O)(Oc2ccccc2)Oc2ccccc2)nc1 | inactive: -14.3%
33 | O=[N+]([O-])c1cc([N+](=O)[O-])c(CCNc2ccccc2)c([N+](=O)[O-])c1 | inactive: -5.16%
34 | CCc1nc2c(n1)c1c(non1O)c1c2no[n+]1[O-] | inactive: 11.3%
35 | CC(=O)N1C2C3N(C(C)=O)C1C1N(C(C)=O)C(C(N1C(C)=O)N3C(C)=O)N2C(C)=O | inactive: 1.41%
36 | O=[N+]([O-])c1cccc2n[nH]nc12 | inactive: 1.07%
37 | COc1ccc(C2=NCC(CBr)S2)cc1 (configuration not stated) | inactive: 2.54%
38 | c1cc(-c2nn[nH]n2)ccc1-c1nn[nH]n1 | inactive: 0.84%
39 | CC1CCN(C(=O)Oc2c(Cl)cc(Cl)c3cccnc23)CC1 | inactive: -1.75%
40 | CC(C)=N/N=C(\N)N[N+](=O)[O-] | inactive: 4.73%
41 | CC(C)c1nc(Nc2ccccc2)n(P(=O)(N(C)C)N(C)C)n1 | inactive: -1.88%
42 | CN(C)C(=O)OCCc1n(C)cc[n+]1C | inactive: 0.23%
43 | CCN(/C(=N/P(=O)(N1CCOCC1)N1CCOCC1)N1CCOCC1)c1ccc(OC)cc1 | inactive: -1.04%
44 | Nc1ccc([As](=O)(O)c2ccc(N)cc2)cc1 | inactive: -0.49%
45 | C[N+]1=C2C=CC=CC=C2SC12C([N+](=O)[O-])=CC([N+](=O)[O-])=C[C-]2[N+](=O)[O-] (configuration not stated) | inactive: 4.7%
46 | c1nnnn1CCn1cnnn1 | inactive: 2.31%
47 | O=P(Nc1nccs1)(c1ccccc1)c1ccccc1 | inactive: -4.66%
48 | CC(C)C(=O)NC(Sc1ccccc1)C(Cl)(Cl)Cl (configuration not stated) | inactive: -1.18%
49 | O=P(Nc1nc2ccccc2s1)(c1ccccc1)c1ccccc1 | inactive: -9.6%
50 | C[C@H]1OP(=O)(Oc2ccccc2)[C@H](O)[C@H](O)[C@H]1N=[N+]=[N-] (some centres not stated) | inactive: -2.47%
51 | CN(C)C1(CNC(=O)c2ccc(Cl)c(S(N)(=O)=O)c2)CCCCC1 | inactive: 0.69%
52 | O=P(Nc1ccccn1)(c1ccc(Br)cc1)c1ccc(Br)cc1 | inactive: -27%

Row | Structure (SMILES) | activation
53 | Nc1ccc(CCCCOc2ccccc2)cc1 | inactive: 3.66%
54 | COc1ccc(N)c([N+](=O)[O-])c1[N+](=O)[O-] | inactive: 3.43%
55 | O=C(OC1CN2CCC1CC2)c1cccc(Cl)c1 (configuration not stated) | inactive: 6.8%
56 | C/C(N)=N\P(=O)(OCc1ccccc1)OCc1ccccc1 | inactive: -0.61%
57 | Nc1ccc([As](=O)(O)c2ccc([N+](=O)[O-])cc2)cc1 | inactive: 0.73%
58 | C(Cc1nn[nH]n1)Cc1nn[nH]n1 | inactive: 3.55%
59 | O=[As](O)(c1ccccc1)c1ccc(O)cc1 | inactive: -0.65%
60 | O=[N+]([O-])c1ncn(CCn2cnc([N+](=O)[O-])n2)n1 | inactive: -0.1%
61 | CC(=O)NC(SC(=S)N(C)C)C(Cl)(Cl)Cl (configuration not stated) | inactive: -3.54%
62 | O=P1(N(CCCl)CCCl)OCCC2CCCCN21 (configuration not stated) | inactive: -0.35%
63 | c1ccc(-c2nn[nH]n2)c(-c2nn[nH]n2)c1 | inactive: 0.25%
64 | Cc1ccc(NP(=O)(Oc2cccc(C)c2)Oc2cccc(C)c2)nc1 | inactive: -1.3%
65 | O=C(NC1CCS(=O)(=O)C1)NP(=S)(Oc1ccccc1)Oc1ccccc1 (configuration not stated) | inactive: -0.02%
66 | CCNC(=S)/N=C(\N)N[N+](=O)[O-] | inactive: 1.55%
67 | Cc1ccccc1OP(=O)(Nc1ccccn1)Oc1ccccc1C | inactive: -8.3%
68 | CC(NC(=O)COC(=O)C(O)(c1ccccc1)c1ccccc1)c1ccccc1 (configuration not stated) | inactive: -2.67%
69 | CN(C)C(=O)Oc1noc2ccccc12 | inactive: 2.73%
70 | O=c1c2cc([N+](=O)[O-])ccc2[nH]c2c([N+](=O)[O-])cc([N+](=O)[O-])cc12 | inactive: 16.6%
71 | O=C(OC1CN2CCC1CC2)c1ccccc1 (configuration not stated) | inactive: 5.73%
72 | CCC(=O)N1C2C3N(C(=O)CC)C1C1N(C(=O)CC)C(C(N1C(=O)CC)N3C(=O)CC)N2C(=O)CC | inactive: 1.33%
73 | COC(=O)c1cc2c(s1)N=C(c1ccccc1)N(C)P2(=O)N1CCOCC1 (configuration not stated) | inactive: 9.12%
74 | Cc1ccc(OP(=O)(Nc2ccccn2)Oc2ccc(C)cc2)cc1 | inactive: -4.87%
75 | CC(=O)NC(SC(=S)N(CC(C)C)CC(C)C)C(Cl)(Cl)Cl (configuration not stated) | inactive: -17.2%
76 | CC(C)(C)C(=O)NC(Sc1ccccc1)C(Cl)(Cl)Cl (configuration not stated) | inactive: -0.91%
77 | CCc1cc(O)c([N+](=O)[O-])c(C)c1[N+](=O)[O-] | inactive: -0.32%
78 | O=P1(Nc2nc3ccc(Cl)cc3s2)COc2ccccc2O1 (configuration not stated) | inactive: 0.17%

Row | Structure (SMILES) | activation
79 | CCOc1ccc(C2=NCC(CBr)S2)cc1 (configuration not stated) | inactive: 2.16%
80 | CC(=O)Nc1ccc([As](=O)(O)O)c(O)c1 | inactive: 2.46%
81 | CC(=O)Nc1ccc(Oc2c([N+](=O)[O-])cc([N+](=O)[O-])cc2[N+](=O)[O-])cc1 | inactive: 3.46%
82 | Cc1ccccc1CN(C)C(=O)COC(=O)C(O)(c1ccccc1)c1ccccc1 | inactive: -1.28%
83 | C[C@@H]1C=CCP(=O)(Oc2ccccc2)O1 (some centres not stated) | inactive: 0.7%
84 | C[C@H]1OP(=O)(Oc2ccccc2)C[C@@H]2O[C@@H]21 (some centres not stated) | inactive: 5.48%
85 | N#C/C(=C\c1ccc(N(CCBr)CCBr)cc1)C(N)=O | inactive: -2.01%
86 | CC(=O)c1ccc(N2CC2c2ccncc2)cc1 (configuration not stated) | inactive: 2.65%
87 | COC(=O)C1(C)COP(=O)(NCc2ccccc2)OC1 (configuration not stated) | inactive: 1.07%
88 | O=[As](O)(c1cccc(O)c1)c1cccc(O)c1 | inactive: 0.52%
89 | Cc1cccc(OCC(=O)OC2CN3CCC2CC3)c1 (configuration not stated) | inactive: -0.05%
90 | O=C(OC1CN2CCC1CC2)c1ccc(Cl)cc1 (configuration not stated) | inactive: 10.1%
91 | COc1cc(C(=O)NCC2(N3CCOCC3)CCCCC2)cc(Cl)c1OC(C)C | inactive: -2%
92 | O=[As](O)(O)c1cccnc1 | inactive: 2.23%
93 | CS(=O)(=O)c1ccc(Cl)c(NC(=O)COC(=O)C(O)(c2ccccc2)c2ccccc2)c1 | inactive: -5.78%
94 | COc1cc(C2NCCC3(OCCO3)C2(C)C)cc(OC)c1OC (configuration not stated) | inactive: 2.5%
95 | CCOP(=O)(Nc1cccc2ccccc12)OCC | inactive: 3.05%
96 | Nc1cccc2c([As](=O)(O)O)cccc12 | inactive: 1.57%
97 | Cc1ccc(NCCc2c([N+](=O)[O-])cc([N+](=O)[O-])cc2[N+](=O)[O-])cc1 | inactive: -2.72%
98 | CCCOP(=S)(Nc1nc(N)cc(=O)[nH]1)OCCC | inactive: -8.1%
99 | O=C(O)COc1ccc([As](=O)(O)O)cc1[N+](=O)[O-] | inactive: 2.7%
100 | Nc1ccccc1[As](=O)(O)c1ccccc1 | inactive: -1.09%
101 | CCOP1(=S)c2c(C)nn(CCC#N)c2N=C(c2ccccc2F)N1C (configuration not stated) | inactive: 1.58%
102 | O=P(Nc1nccs1)(Oc1ccccc1)Oc1ccccc1 | inactive: -6.1%

Source: PubChem BioAssay AID1671463 (Sanford-Burnham Center for Chemical Genomics, 2021)
